Measured affinities in a library of Ab-95 light chain variants

Target: peptide PDVDLGDISGINAS, taken from heptad repeat 2 (HR2) of SARS-CoV-2 spike.

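Phage display of a naive human antibody library on the peptide gave the parent. Variants in AAYL52 differ from the parent at up to three CDR positions; double and triple changes were sampled at random. In AlphaSeq, yeast of one mating type display the scFv and yeast of the other type display the target. Pairs that bind mate more often; barcode pairs of the diploids are counted by sequencing. A regression on co-assayed BCL2-family reference pairs converts the normalised counts of each replicate to an apparent Kd. Each pool was mated in three replicate cultures.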

Parent: Ab-95, a human scFv built as VH, a 15-residue (Gly4Ser)3 linker, VL. Only the CDRs of the light chain vary.
VH: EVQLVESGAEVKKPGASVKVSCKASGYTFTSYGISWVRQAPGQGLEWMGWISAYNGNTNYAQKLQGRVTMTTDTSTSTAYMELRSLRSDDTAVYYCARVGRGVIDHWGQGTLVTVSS
VL: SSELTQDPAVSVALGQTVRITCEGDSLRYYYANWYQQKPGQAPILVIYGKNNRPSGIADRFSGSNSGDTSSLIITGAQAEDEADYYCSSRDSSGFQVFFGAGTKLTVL

Positions count from residue 1 of the parent VL; Y31Q puts Q in place of Y.
Kd is apparent (estimated from mating counts) and averaged on the log scale over replicates with a signal. Smaller is tighter.
An entry "not detected" has no value in the source: the pair was not observed among the diploids in any replicate. This suggests poor binding but is not conclusive.
As a blank, each scFv also met three strains without target: over library AAYL52, 28% of these pairings were detected, typically at 8.2 µM and seldom below 800 nM. For each scFv, signals with the empty controls are counted beside the result.
For reference, the parent read 200 nM as the reference entry and 180 nM as a member of this library.

changes	Kd	seen in	empty controls
Y31Q/K50T/S93K	85 nM	3 of 3	1 of 9
N33H/G49L/S55Q	1.8 µM	2 of 3	1 of 9
K50L/N51D/D91F	1.8 µM	3 of 3	6 of 9
S26E/P54T/F95C	not detected	0 of 3	2 of 9
D25R/N51I/R90L	6.9 µM	2 of 3	3 of 9
G24P/D25S/Y31C	37 µM	2 of 3	4 of 9
R90M/D91M/S92T	390 nM	3 of 3	5 of 9
L27F/Y30P	140 nM	3 of 3	0 of 9
D25F/Y29E/R53V	4.4 µM	3 of 3	4 of 9
G94I/V97P/F98P	not detected	0 of 3	2 of 9
D25A/G49R/S55N	56 µM	1 of 3	1 of 9
G49T/N51F/S55M	not detected	0 of 3	3 of 9
S88E/S92E/V97F	3.4 µM	3 of 3	4 of 9
R90P/F98H	not detected	0 of 3	5 of 9
K50T/D91Q/G94S	not detected	0 of 3	0 of 9
N51T/S88Y/F95V	14 µM	1 of 3	2 of 9
L27H/N52I	45 µM	2 of 3	2 of 9
D25N/L27P/S93D	64 µM	2 of 3	4 of 9
E23C/G24F/S55P	3.8 µM	3 of 3	2 of 9
R28L/A32F	16 µM	1 of 3	3 of 9
D25E/F98I	8.3 µM	2 of 3	3 of 9
Y29H/S55M/Q96W	47 nM	3 of 3	4 of 9
Y29H/R90L/Q96Y	93 µM	2 of 3	6 of 9
E23R/Y30W/D91E	220 nM	3 of 3	3 of 9
N51A/N52A/F95G	12 µM	3 of 3	6 of 9
S88Q/G94F/V97D	1.4 µM	3 of 3	1 of 9
G24T/D25G/V97I	30 µM	2 of 3	1 of 9
E23W/P54Q/S88K	220 nM	3 of 3	4 of 9
Y29K/N51F	2.9 µM	3 of 3	6 of 9
R28W/P54W	4.0 µM	1 of 3	1 of 9
N52Y/S55M/G94Q	19 µM	3 of 3	5 of 9
G24S/K50S/P54T	not detected	0 of 3	2 of 9
S26H/R53Y/S89E	100 µM	1 of 3	2 of 9
N51L/N52L/S92W	2.2 µM	1 of 3	5 of 9
S26V/L27R/F95G	3.2 µM	2 of 3	5 of 9
S26A/K50H/P54S	230 nM	3 of 3	3 of 9
G49D/S55I/S93M	9.7 µM	1 of 3	3 of 9
S26Q/G49Q/Q96K	4.8 µM	1 of 3	2 of 9
D25R/R28K/Y31A	22 nM	3 of 3	6 of 9
D25G/F95C/V97L	2.3 µM	2 of 3	0 of 9
A32H/N52L/S92N	not detected	0 of 3	0 of 9
Y30C/G49N/S55T	430 nM	3 of 3	1 of 9
R53P/P54C/S55E	28 µM	1 of 3	2 of 9
G49A/N51Y/F98Y	not detected	0 of 3	1 of 9
G24H/D91F/V97I	890 nM	3 of 3	1 of 9
S26L/S93T/V97H	13 µM	1 of 3	0 of 9
G24P/S92D/F95L	not detected	0 of 3	0 of 9
Y31A/K50H/N52H	290 nM	3 of 3	2 of 9
D91H/Q96R/F98A	5.3 µM	2 of 3	2 of 9
N33T/G49P/G94M	4.1 µM	1 of 3	3 of 9
L27P/F95N	9.5 µM	3 of 3	2 of 9
Y30L/S93Q/F95N	190 nM	1 of 3	1 of 9
Y31A/P54R/F95M	250 nM	3 of 3	3 of 9
D25W/Y30C/R90C	620 nM	2 of 3	1 of 9
L27W/K50E/R90D	14 µM	3 of 3	2 of 9
R53C/G94C	8.8 µM	2 of 3	6 of 9
Y31F/P54H/R90I	760 nM	1 of 3	1 of 9
S26I/R90P/S92T	2.6 µM	1 of 3	3 of 9
Y30H/A32F/S93N	670 nM	2 of 3	3 of 9

Again, the first 8 entries without any signal:

changes,Kd,seen in,empty controls
S26E/P54T/F95C,not detected,0 of 3,2 of 9
G94I/V97P/F98P,not detected,0 of 3,2 of 9
G49T/N51F/S55M,not detected,0 of 3,3 of 9
R90P/F98H,not detected,0 of 3,5 of 9
K50T/D91Q/G94S,not detected,0 of 3,0 of 9
G24S/K50S/P54T,not detected,0 of 3,2 of 9
A32H/N52L/S92N,not detected,0 of 3,0 of 9
G49A/N51Y/F98Y,not detected,0 of 3,1 of 9

Values reported by Engelhart et al. 2022, doi:10.1038/s41597-022-01779-4 (FLAb copy).